{
  "source": "patent US6632977B2",
  "about": "(priority 1996, dated 2003)",
  "assay_type_in_all_cases": "in vivo",
  "key": {"[1]": {"tested_on": "mutant mice deficient in the μ opioid receptor (−/−) and their wild-type congeners (+/+)", "assay": "Hot plate test (licking and jumping), antinociceptive response to morphine", "conditions": "2 and 6 mg/kg, subcutaneous"}, "[2]": {"tested_on": "mutant mice deficient in the μ opioid receptor (−/−) and their wild-type congeners (+/+)", "assay": "Tail immersion test (54° C.), antinociceptive response to morphine", "conditions": "2 and 6 mg/kg, subcutaneous"}, "[3]": {"tested_on": "mice deficient in the μ opioid receptor (−/−) and their wild-type congeners (+/+)", "assay": "Conditioned preference of position induced by morphine", "conditions": "3 mg/kg, subcutaneous"}},
  "data": [
    {"compound": "CN1CC[C@]23c4c5ccc(O)c4O[C@H]2[C@@H](O)C=C[C@H]3[C@H]1C5", "note": "[morphine]", "values": [
      {"measurement": "antinociceptive response, latency of licking and jumping", "setting": "[1]; wild-type mice", "value": "significant antinociceptive responses"},
      {"measurement": "antinociceptive response, latency of licking and jumping", "setting": "[1]; μ receptor −/− mutants", "value": "no antinociceptive response"},
      {"measurement": "antinociceptive response, latency of withdrawal of the tail", "setting": "[2]; wild-type mice", "value": "significant antinociceptive responses"},
      {"measurement": "antinociceptive response, latency of withdrawal of the tail", "setting": "[2]; μ receptor −/− mutants", "value": "no antinociceptive response"},
      {"measurement": "conditioned preference of position", "setting": "[3]; wild-type mice", "value": "induces a conditioned preference of position"},
      {"measurement": "conditioned preference of position", "setting": "[3]; μ receptor −/− mutant mice", "value": "not observed"}
    ]}
  ]
}
